Reference: PubChem BioAssay (NCI)
Some tests of the compounds listed are not included; inactive here does not mean inactive elsewhere.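 Growth conditions: 96-well plates. Treatment: test compound, 48 hours, 5 concentrations. Analysis: linear interpolation between bracketing concentrations; unreached endpoints set to highest concentration. GI50 marks 50% less growth.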

Assays:
Assay in all cases: inhibition of tumour cell growth, NCI panel, 48 h; in the data active = GI50 below about 0.43 µM; inactive = the rest
OVCAR-4 ovarian = tested on: OVCAR-4 ovarian
SR leukemia = tested on: SR leukemia
786-0 renal = tested on: 786-0 renal
SF-295 CNS = tested on: SF-295 CNS
OVCAR-5 ovarian = tested on: OVCAR-5 ovarian
K-562 leukemia = tested on: K-562 leukemia
SF-539 CNS = tested on: SF-539 CNS
SK-MEL-2 melanoma = tested on: SK-MEL-2 melanoma
HCT-116 colon = tested on: HCT-116 colon
MALME-3M melanoma = tested on: MALME-3M melanoma
UO-31 renal = tested on: UO-31 renal
HOP-62 NSCLC = tested on: HOP-62 NSCLC
NCI/ADR-RES ovarian = tested on: NCI/ADR-RES ovarian
NCI-H226 lung = tested on: NCI-H226 lung
IGROV1 ovarian = tested on: IGROV1 ovarian
RPMI-8226 leukemia = tested on: RPMI-8226 leukemia
T-47D breast = tested on: T-47D breast
NCI-H23 lung = tested on: NCI-H23 lung
CCRF-CEM leukemia = tested on: CCRF-CEM leukemia
EKVX NSCLC = tested on: EKVX NSCLC
RXF 393 renal = tested on: RXF 393 renal
MDA-N = tested on: MDA-N
SW-620 colon = tested on: SW-620 colon
ACHN renal = tested on: ACHN renal
SF-268 CNS = tested on: SF-268 CNS
M14 melanoma = tested on: M14 melanoma
TK-10 renal = tested on: TK-10 renal
KM12 colon = tested on: KM12 colon
DU-145 prostate = tested on: DU-145 prostate
SK-MEL-28 melanoma = tested on: SK-MEL-28 melanoma
COLO 205 colon = tested on: COLO 205 colon
HCT-15 colon = tested on: HCT-15 colon
SK-OV-3 ovarian = tested on: SK-OV-3 ovarian
HT29 colon = tested on: HT29 colon
A549 NSCLC = tested on: A549 NSCLC
OVCAR-8 ovarian = tested on: OVCAR-8 ovarian
UACC-257 melanoma = tested on: UACC-257 melanoma
LOX IMVI melanoma = tested on: LOX IMVI melanoma
MOLT-4 leukemia = tested on: MOLT-4 leukemia
MDA-MB-231 breast = tested on: MDA-MB-231 breast
A498 renal = tested on: A498 renal
HS 578T breast = tested on: HS 578T breast
NCI-H522 lung = tested on: NCI-H522 lung
SN12C renal = tested on: SN12C renal
MDA-MB-435 = tested on: MDA-MB-435
SNB-19 CNS = tested on: SNB-19 CNS
CAKI-1 renal = tested on: CAKI-1 renal
MCF7 breast = tested on: MCF7 breast
HL-60(TB) leukemia = tested on: HL-60(TB) leukemia
SK-MEL-5 melanoma = tested on: SK-MEL-5 melanoma
SNB-75 CNS = tested on: SNB-75 CNS
NCI-H460 lung = tested on: NCI-H460 lung
OVCAR-3 ovarian = tested on: OVCAR-3 ovarian
UACC-62 melanoma = tested on: UACC-62 melanoma
HOP-92 NSCLC = tested on: HOP-92 NSCLC
PC-3 prostate = tested on: PC-3 prostate
U251 CNS = tested on: U251 CNS
BT-549 breast = tested on: BT-549 breast

Measured: GI50

CCC1C(OC(=O)C(O)(c2ccccc2)c2ccccc2)C(C)(C)C1N1CCCCC1 (stereo not drawn)
inactive: OVCAR-4 ovarian > 100 µM | SR leukemia 52.6 µM | 786-0 renal 41.2 µM | SF-295 CNS 29.4 µM | OVCAR-5 ovarian 52.1 µM | K-562 leukemia 44.1 µM | SF-539 CNS 60.2 µM | SK-MEL-2 melanoma 29.6 µM | HCT-116 colon 35.1 µM | MALME-3M melanoma 23.2 µM | UO-31 renal 42 µM | HOP-62 NSCLC 36.4 µM | NCI/ADR-RES ovarian 60.5 µM | NCI-H226 lung 25.9 µM | IGROV1 ovarian 97.6 µM | RPMI-8226 leukemia 34.4 µM | T-47D breast 44.8 µM | NCI-H23 lung 51.7 µM | CCRF-CEM leukemia 44.7 µM | EKVX NSCLC 34.3 µM | RXF 393 renal 31.8 µM | MDA-N 40.4 µM | SW-620 colon 42.4 µM | ACHN renal 80.8 µM | SF-268 CNS 69.8 µM | M14 melanoma 15.7 µM | TK-10 renal > 100 µM | KM12 colon 47 µM | DU-145 prostate > 100 µM | SK-MEL-28 melanoma 43.4 µM | COLO 205 colon 28.1 µM | HCT-15 colon 43.5 µM | SK-OV-3 ovarian 42.9 µM | HT29 colon 16.2 µM | A549 NSCLC 48.7 µM | OVCAR-8 ovarian 88.7 µM | UACC-257 melanoma 30.2 µM | LOX IMVI melanoma 30.6 µM | MOLT-4 leukemia 23.2 µM | MDA-MB-231 breast > 100 µM | A498 renal 75.5 µM | HS 578T breast 26.2 µM | NCI-H522 lung 30.8 µM | SN12C renal 32.2 µM | MDA-MB-435 = 47.6 µM | SNB-19 CNS 71.6 µM | CAKI-1 renal > 100 µM | MCF7 breast 34.9 µM | HL-60(TB) leukemia 26.1 µM | SK-MEL-5 melanoma 17.7 µM | SNB-75 CNS 92.8 µM | NCI-H460 lung 42.8 µM | OVCAR-3 ovarian 96.6 µM | UACC-62 melanoma 55.5 µM | HOP-92 NSCLC 34.2 µM | PC-3 prostate 29.8 µM | U251 CNS 81.9 µM | BT-549 breast 43.6 µM
